Molecular target: truncated PI3Kα (p110α/iSH2 p85α), PI3KA_Act (Homo sapiens (Human), UniProt P42336)
Test: PI3Kα biochemical kinase assay, fluorescence polarization format (PI3KA_Act)
Details: 0.5 nM p110α/iSH2 p85, 1 mM ATP, 30 μM PIP2, 15-min preincubation; Morrison equation fit
Experimental: Enzyme Production for Biochemical Assay: p110α-iSH2 p85α Complex (Full Length p110α and p85α iSH2)(“PI3KA Act”)
Gene encoding p110α subunit was subcloned into polyhedrine promoter while gene encoding p85α niSH2 domains was subcloned into p10 promoter. […] Recombinant baculovirus was generated using Bac-to-Bac protocol (Life Technologies, Carlsbad, Calif.). Large scale expression was conducted in Sf21 (Life Technologies, Carlsbad, Calif.) cells at a multiplicity of infection (“MOI”)=1 for 48 hours. Cells were lyzed in 50 mM Tris pH 8.0, 250 mM NaCl, 5% glycerol, 0.25 mM TCEP, and 20 mM imidazole. The p110α-niSH2 p85α complex was purified from clarified supernatant using Immobilized Metalo Affinity Chromatography (“IMAC”). The protein was eluted from the column using 50 mM Tris pH 8.0, 200 mM NaCl, 0.25 mM TCEP, and 200 mM imidazole. Following elution p110α-niSH2 p85α complex was dialyzed against 4 liters of 50 mM Tris pH 8.0, 200 mM NaCl, 0.25 mM TCEP, and 40 mM imidazole in the presence of PreScission Protease (1:70 molar ratio of Protease to Protein) and TEV protease (1:40 molar ratio protease to protein) for 16 hours at 4° C. The protein was further purified using reverse IMAC to remove cleaved histidine tag and contaminants captured during initial IMAC purification. The mixture of p110α-iSH2 p85α complex and cleaved nSH2 was recovered in reverse IMAC 40 mM imidazole flow through and 60 mM imidazole wash fractions. Those fractions were pulled together and loaded on Superdex 200 26/60 SEC column equilibrated in 25 mM Tris, pH 8.0, 100 mM NaCl, 2% glycerol, and 2 mM TCEP.
The enzymatic reactions were conducted in 50 μL volumes in 96-well plates. […] The reactions were incubated for 30 min at room temperature, stopped with EDTA pH 8 (10 mM final concentration). […] The plate was shaken for 30 minutes and fluorescence polarization values were measured on an LJL Analyst HT plate reader (Molecular Devices, Sunnyvale, Calif.).

Protein sequences, listed by entry. Tags and fused reporters are not part of them.
UniProt P42336, whole entry: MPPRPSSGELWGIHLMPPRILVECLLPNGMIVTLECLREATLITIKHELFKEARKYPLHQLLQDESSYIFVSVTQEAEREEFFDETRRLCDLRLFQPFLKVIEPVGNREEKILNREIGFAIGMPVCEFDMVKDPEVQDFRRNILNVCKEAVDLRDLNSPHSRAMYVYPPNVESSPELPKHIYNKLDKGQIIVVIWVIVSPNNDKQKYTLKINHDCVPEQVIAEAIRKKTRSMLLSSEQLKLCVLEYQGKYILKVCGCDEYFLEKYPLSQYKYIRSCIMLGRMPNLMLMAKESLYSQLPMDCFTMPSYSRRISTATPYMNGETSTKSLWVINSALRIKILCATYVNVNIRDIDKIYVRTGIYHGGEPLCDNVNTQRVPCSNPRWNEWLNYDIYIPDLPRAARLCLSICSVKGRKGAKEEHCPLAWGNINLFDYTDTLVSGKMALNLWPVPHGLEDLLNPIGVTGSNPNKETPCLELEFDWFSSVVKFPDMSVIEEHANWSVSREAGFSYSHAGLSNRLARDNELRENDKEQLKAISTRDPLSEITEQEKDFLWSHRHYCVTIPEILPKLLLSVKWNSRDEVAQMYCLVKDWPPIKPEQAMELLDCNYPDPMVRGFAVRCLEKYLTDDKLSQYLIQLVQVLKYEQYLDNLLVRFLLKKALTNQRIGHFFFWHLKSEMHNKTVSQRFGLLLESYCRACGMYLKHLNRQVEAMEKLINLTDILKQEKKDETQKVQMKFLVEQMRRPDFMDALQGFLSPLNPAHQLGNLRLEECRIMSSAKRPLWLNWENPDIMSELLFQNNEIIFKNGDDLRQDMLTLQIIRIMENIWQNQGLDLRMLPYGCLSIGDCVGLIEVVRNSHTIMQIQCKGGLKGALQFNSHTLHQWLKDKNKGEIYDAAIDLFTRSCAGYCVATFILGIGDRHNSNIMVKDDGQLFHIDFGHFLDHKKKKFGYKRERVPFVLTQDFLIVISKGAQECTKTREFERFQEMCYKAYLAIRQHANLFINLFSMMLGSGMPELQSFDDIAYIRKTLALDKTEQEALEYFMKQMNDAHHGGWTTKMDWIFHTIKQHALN

| SMILES | Ki |
| --- | --- |
| Nc1ncc(-c2nc(N3CCOCC3)nc(N[C@@]3(CO)CCN(C(=O)C4(F)CC4)C3)c2F)cn1 [Example 1, [(3S)-3-{[2′-amino-5-fluoro-2-(morpholin-4-yl)-4,5′-bipyrimidin-6-yl]amino}-3-(hydroxymethyl)pyrrolidin-1-yl](1-fluorocyclopropyl)methanone] | 0.02 nM |
| CN(c1cc(-c2cnc(N)nc2)nc(N2CCOCC2)n1)[C@@]1(C)CCN(S(C)(=O)=O)C1 [Example 13, N~6~-methyl-N~6~-[(3S)-3-methyl-1-(methylsulfonyl)pyrrolidin-3-yl]-2-(morpholin-4-yl)-4,5′-bipyrimidine-2′,6-diamine] | 0.229 nM |
| C[C@H]1COCCN1c1nc(-c2cnc(N)nc2)cc(N(C)[C@]2(C)CCN(C(=O)OC(C)(C)C)C2)n1 [Example 14, tert-butyl (3R)-3-[{2′-amino-2-[(3S)-3-methylmorpholin-4-yl]-4,5′-bipyrimidin-6-yl}(methyl)amino]-3-methylpyrrolidine-1-carboxylate] | 1.07 nM |
| CC(=O)N1CC[C@@](C)(N(C)c2cc(-c3cnc(N)nc3)nc(N3CCOC[C@@H]3C)n2)C1 [Example 16, 1-{(3R)-3-[{2′-amino-2-[(3S)-3-methylmorpholin-4-yl]-4,5′-bipyrimidin-6-yl}(methyl)amino]-3-methylpyrrolidin-1-yl}ethanone] | 0.858 nM |
| CC(=O)N1CC[C@@](C)(Nc2cc(-c3cnc(N)nc3)nc(N3CCOC[C@@H]3C)n2)C1 [Example 17, 1-[(3R)-3-({2′-amino-2-[(3S)-3-methylmorpholin-4-yl]-4,5′-bipyrimidin-6-yl}amino)-3-methylpyrrolidin-1-yl]ethanone] | 2.24 nM |
| CC(=O)N1CC[C@](C)(N(C)c2cc(-c3cnc(N)nc3)nc(N3CCOC[C@@H]3C)n2)C1 [Example 20, 1-{(3S)-3-[{2′-amino-2-[(3S)-3-methylmorpholin-4-yl]-4,5′-bipyrimidin-6-yl}(methyl)amino]-3-methylpyrrolidin-1-yl}ethanone] | 0.129 nM |
| CC(C)(C)OC(=O)N1CC[C@](CO)(Nc2cc(-c3cnc(N)nc3)nc(N3CCOCC3)n2)C1 [Example 24, tert-butyl (3S)-3-{[2′-amino-2-(morpholin-4-yl)-4,5′-bipyrimidin-6-yl]amino}-3-(hydroxymethyl)pyrrolidine-1-carboxylate] | < 0.018 nM |
| CCOC(=O)N1CC[C@](CO)(Nc2cc(-c3cnc(N)nc3)nc(N3CCOCC3)n2)C1 [Example 45, ethyl (3S)-3-{[2′-amino-2-(morpholin-4-yl)-4,5′-bipyrimidin-6-yl]amino}-3-(hydroxymethyl)pyrrolidine-1-carboxylate] | 0.022 nM |
| CC(=O)N1CC(CO)(Nc2cc(-c3cnc(N)nc3)nc(N3CCOC[C@@H]3C)n2)C1 [Example 53, 1-[3-({2′-amino-2-[(3S)-3-methylmorpholin-4-yl]-4,5′-bipyrimidin-6-yl}amino)-3-(hydroxymethyl)azetidin-1-yl]ethanone] | 0.541 nM |
| CC(C)(C)OC(=O)N1CCC(Nc2cc(-c3cnc(N)nc3)nc(N3CCOCC3)n2)(C(F)(F)F)C1 (centres unmarked) [Example 62, tert-butyl 3-{[2′-amino-2-(morpholin-4-yl)-4,5′-bipyrimidin-6-yl]amino}-3-(trifluoromethyl)pyrrolidine-1-carboxylate] | 0.158 nM |
| CC(C)OC(=O)N1CC[C@](CO)(Nc2cc(-c3cnc(N)nc3)nc(N3CCOC[C@@H]3C)n2)C1 [Example 66, propan-2-yl (3S)-3-({2′-amino-2-[(3S)-3-methylmorpholin-4-yl]-4,5′-bipyrimidin-6-yl}amino)-3-(hydroxymethyl)pyrrolidine-1-carboxylate] | 0.026 nM |
| CC(C)(F)C(=O)N1CC[C@](CO)(Nc2cc(-c3cnc(N)nc3)nc(N3CCOCC3)n2)C1 [Example 68, 1-[(3S)-3-{[2′-amino-2-(morpholin-4-yl)-4,5′-bipyrimidin-6-yl]amino}-3-(hydroxymethyl)pyrrolidin-1-yl]-2-fluoro-2-methylpropan-1-one] | 0.058 nM |
| Nc1ncc(-c2cc(N[C@@]3(CO)CCN(C(=O)[C@H]4C[C@@H]4F)C3)nc(N3CCOCC3)n2)cn1 [Example 74, [(3S)-3-{[2′-amino-2-(morpholin-4-yl)-4,5′-bipyrimidin-6-yl]amino}-3-(hydroxymethyl)pyrrolidin-1-yl][(1R,2S)-2-fluorocyclopropyl]methanone] | 0.153 nM |
| Nc1ncc(-c2cc(N[C@@]3(CO)CCN(C(=O)[C@H]4C[C@H]4F)C3)nc(N3CCOCC3)n2)cn1 [Example 75, [(3S)-3-{[2′-amino-2-(morpholin-4-yl)-4,5′-bipyrimidin-6-yl]amino}-3-(hydroxymethyl)pyrrolidin-1-yl][(1R,2R)-2-fluorocyclopropyl]methanone] | 0.116 nM |
| Nc1ncc(-c2nc(N[C@@]3(CO)CCN(C(=O)C4(F)CC4)C3)nc(N3CCOCC3)n2)cn1 [Example 91, [(3S)-3-{[4-(2-aminopyrimidin-5-yl)-6-(morpholin-4-yl)-1,3,5-triazin-2-yl]amino}-3-(hydroxymethyl)pyrrolidin-1-yl](1-fluorocyclopropyl)methanone] | 0.048 nM |
| C[C@H]1COCCN1c1nc(N[C@@]2(CO)CCN(C(=O)C3CC3)C2)cc(-c2cnc(N)nc2)n1 [Example 96, [(3S)-3-({2′-amino-2-[(3S)-3-methylmorpholin-4-yl]-4,5′-bipyrimidin-6-yl}amino)-3-(hydroxymethyl)pyrrolidin-1-yl](cyclopropyl)methanone] | 0.034 nM |
| Nc1ncc(-c2cc(N[C@@]3(CO)CCN(CC(=O)N4CCC4)C3)nc(N3CCOCC3)n2)cn1 [Example 98, 2-[(3S)-3-{[2′-amino-2-(morpholin-4-yl)-4,5′-bipyrimidin-6-yl]amino}-3-(hydroxymethyl)pyrrolidin-1-yl]-1-(azetidin-1-yl)ethanone] | 0.071 nM |
| CC(C)(N)C(=O)N1CC[C@](C)(Nc2nc(N3CCOCC3)nc(-c3cnc(N)nc3)c2F)C1 [Example 109, 2-amino-1-[(3S)-3-{[2′-amino-5-fluoro-2-(morpholin-4-yl)-4,5′-bipyrimidin-6-yl]amino}-3-methylpyrrolidin-1-yl]-2-methylpropan-1-one] | 0.093 nM |
| Nc1ncc(-c2nc(N3CCOCC3)nc(N[C@@]3(CO)CCN(C(=O)NCC(F)(F)F)C3)c2F)cn1 [Example 135, (3S)-3-{[2′-amino-5-fluoro-2-(morpholin-4-yl)-4,5′-bipyrimidin-6-yl]amino}-3-(hydroxymethyl)-N-(2,2,2-trifluoroethyl)pyrrolidine-1-carboxamide] | 0.463 nM |
| CC(C)(C)OC(=O)N1CCC[C@@](CO)(Nc2nc(N3CCOCC3)nc(-c3cnc(N)nc3)c2F)C1 [Example 142, tert-butyl (3R)-3-{[2′-amino-5-fluoro-2-(morpholin-4-yl)-4,5′-bipyrimidin-6-yl]amino}-3-(hydroxymethyl)piperidine-1-carboxylate] | 7.31 nM |

Reference: patent US9758538B2, “Pyrimidine derivatives” (PFIZER INC., priority 2015, dated 2017)
